Test results: PMC3605724 (2013)

System: Caco-2 cell monolayers
Test: Transport studies across Caco-2 cell monolayers

Decrease in BL-AP direction transport caused by verapamil (0.1 mM verapamil, 0.1 times HDS, AP pH 7.5): 2.3 times | Increase of ER under AP pH 6.5 (AP pH 6.5 compared with AP pH 7.5): 6.2 times
Compound: CC(CCc1ccccc1)NCC(O)c1ccc(O)c(C(N)=O)c1 (centres unmarked) [Labetalol]
